Species on record: Homo sapiens
Test: Selectivity ratio of IC50 for inhibition of Bcr-Abl T315I mutant (unknown origin) to IC50 for inhibition of wild type Bcr-Abl (unknown origin)

Ratio IC50 | SMILES
226 | CS(=O)(=O)Nc1ccc(-c2cn([C@@H]3CN[C@H](C(=O)Nc4ccc(Cl)c(C(F)(F)F)c4)C3)nn2)cn1
133 | CC(C)(C)OC(=O)N1C[C@@H](n2cc(-c3ccc(N)nc3)nn2)C[C@H]1C(=O)Nc1ccc(Cl)c(C(F)(F)F)c1
6.59 | Nc1nc2ccc(-c3cn([C@@H]4CN[C@H](C(=O)Nc5ccc(Br)cc5)C4)nn3)nc2s1
9.39 | CC(=O)Nc1nc2ccc(-c3cn([C@@H]4CN[C@H](C(=O)Nc5ccc(F)c(F)c5)C4)nn3)nc2s1
27.9 | CC(C)(C)OC(=O)N1C[C@@H](n2cc(-c3ccc4nc(N)sc4n3)nn2)C[C@H]1C(=O)Nc1ccc(F)c(F)c1
4.46 | O=C(Nc1nc2ccc(-c3cn([C@@H]4CN[C@H](C(=O)Nc5ccc(Cl)c(C(F)(F)F)c5)C4)nn3)nc2s1)C1CC1
80.9 | CC(=O)Nc1nc2ccc(-c3cn([C@@H]4CN[C@H](C(=O)Nc5ccc(Cl)cc5Cl)C4)nn3)nc2s1
44.7 | O=C(Nc1nc2ccc(-c3cn([C@@H]4CN[C@H](C(=O)Nc5ccc(F)c(F)c5)C4)nn3)nc2s1)C1CC1
9.74 | CCN1CCN(c2cc(NC(=O)[C@@H]3C[C@H](n4cc(-c5ccc6c(N)n[nH]c6c5)nn4)CN3)ccc2Cl)CC1
1.58 | Nc1nc2ccc(-c3cn([C@@H]4CN[C@H](C(=O)Nc5ccc(Cl)c(C(F)(F)F)c5)C4)nn3)nc2s1
83 | CC(C)(C)C(=O)Nc1ccc(-c2cn([C@@H]3CN[C@H](C(=O)Nc4ccc(Cl)c(C(F)(F)F)c4)C3)nn2)cn1
3.21 | O=C(Nc1nc2ccc(-c3cn([C@@H]4CN[C@H](C(=O)Nc5ccc(Br)cc5)C4)nn3)nc2s1)C1CC1
7.11 | Nc1n[nH]c2cc(-c3cn([C@@H]4CN[C@H](C(=O)Nc5ccc(Br)cc5)C4)nn3)ccc12
4.74 | CC(C)(C)OC(=O)N1C[C@@H](n2cc(-c3ccc4c(N)n[nH]c4c3)nn2)C[C@H]1C(=O)Nc1ccc(Br)cc1
2.54 | CC(=O)Nc1nc2ccc(-c3cn([C@@H]4CN[C@H](C(=O)Nc5ccc(Cl)c(C(F)(F)F)c5)C4)nn3)nc2s1
18.1 | CCN(CC)C(=O)c1cncc(-c2cn([C@@H]3CN[C@H](C(=O)Nc4ccc(Cl)c(C(F)(F)F)c4)C3)nn2)c1
6.86 | CC(C)(C)OC(=O)N1C[C@@H](n2cc(-c3ccc4c(N)n[nH]c4c3)nn2)C[C@H]1C(=O)Nc1ccc(Cl)c(C(F)(F)F)c1
4.29 | CC(=O)Nc1n[nH]c2cc(-c3cn([C@@H]4CN[C@H](C(=O)Nc5ccc(Cl)c(C(F)(F)F)c5)C4)nn3)ccc12
43 | CC(=O)Nc1n[nH]c2cc(-c3cn([C@@H]4CN[C@H](C(=O)Nc5ccc(Cl)cc5Cl)C4)nn3)ccc12
26 | O=C(Nc1n[nH]c2cc(-c3cn([C@@H]4CN[C@H](C(=O)Nc5ccc(Br)cc5)C4)nn3)ccc12)C1CC1

Ratio IC50 | SMILES
63.1 | CC(C)(C)OC(=O)N1C[C@@H](n2cc(-c3ccc4nc(N)sc4n3)nn2)C[C@H]1C(=O)Nc1ccc(Cl)c(C(F)(F)F)c1
31 | CC(C)(C)OC(=O)N1C[C@@H](n2cc(-c3ccc4c(N)n[nH]c4c3)nn2)C[C@H]1C(=O)Nc1ccc(Cl)cc1Cl
11.9 | CN(C)CCNC(=O)c1cncc(-c2cn([C@@H]3CN[C@H](C(=O)Nc4ccc(Cl)c(C(F)(F)F)c4)C3)nn2)c1
13.3 | O=C(Nc1ccc(Cl)c(C(F)(F)F)c1)[C@@H]1C[C@H](n2cc(-c3cncc(C(=O)N4CCOCC4)c3)nn2)CN1
16.3 | O=C(NC1CC1)c1cncc(-c2cn([C@@H]3CN[C@H](C(=O)Nc4ccc(Cl)c(C(F)(F)F)c4)C3)nn2)c1
520 | O=C(Nc1ccc(-c2cn([C@@H]3CN[C@H](C(=O)Nc4ccc(Cl)c(C(F)(F)F)c4)C3)nn2)cn1)C1CC1
97.4 | Nc1ccc(-c2cn([C@@H]3CN[C@H](C(=O)Nc4ccc(Cl)c(C(F)(F)F)c4)C3)nn2)cn1
36.9 | CC(=O)Nc1ccc(-c2cn([C@@H]3CN[C@H](C(=O)Nc4ccc(Cl)c(C(F)(F)F)c4)C3)nn2)cn1
24.2 | CC(=O)Nc1nc2ccc(-c3cn([C@@H]4CN[C@H](C(=O)Nc5ccc(Br)cc5)C4)nn3)nc2s1
15.1 | C=CC(=O)Nc1ccc(-c2cn([C@@H]3CN[C@H](C(=O)Nc4ccc(Cl)c(C(F)(F)F)c4)C3)nn2)cn1
126 | O=C(Nc1n[nH]c2cc(-c3cn([C@@H]4CN[C@H](C(=O)Nc5ccc(Cl)c(C(F)(F)F)c5)C4)nn3)ccc12)C1CC1
12.5 | Nc1nc2ccc(-c3cn([C@@H]4CN[C@H](C(=O)Nc5ccc(Cl)cc5Cl)C4)nn3)nc2s1
426 | Nc1n[nH]c2cc(-c3cn([C@@H]4CN[C@H](C(=O)Nc5ccc(Cl)cc5Cl)C4)nn3)ccc12
3.66 | CC(C)(C)OC(=O)N1C[C@@H](n2cc(-c3ccc4nc(N)sc4n3)nn2)C[C@H]1C(=O)Nc1ccc(Br)cc1
58.7 | CC(=O)Nc1n[nH]c2cc(-c3cn([C@@H]4CN[C@H](C(=O)Nc5ccc(Br)cc5)C4)nn3)ccc12
9.14 | Nc1n[nH]c2cc(-c3cn([C@@H]4CN[C@H](C(=O)Nc5ccc(Cl)c(C(F)(F)F)c5)C4)nn3)ccc12
316 | O=C(Nc1nc2ccc(-c3cn([C@@H]4CN[C@H](C(=O)Nc5ccc(Cl)cc5Cl)C4)nn3)nc2s1)C1CC1
241 | O=C(Nc1n[nH]c2cc(-c3cn([C@@H]4CN[C@H](C(=O)Nc5ccc(Cl)cc5Cl)C4)nn3)ccc12)C1CC1
12.4 | Nc1nc2ccc(-c3cn([C@@H]4CN[C@H](C(=O)Nc5ccc(F)c(F)c5)C4)nn3)nc2s1
28 | CC(C)(C)OC(=O)N1C[C@@H](n2cc(-c3ccc4nc(N)sc4n3)nn2)C[C@H]1C(=O)Nc1ccc(Cl)cc1Cl

Reference: ChEMBL document CHEMBL5113400, “Design, synthesis, and biological evaluation of trizole-based heteroaromatic derivatives as Bcr-Abl kinase inhibitors” (Eur J Med Chem, 2022)
